Laboratory results from US7183068B2, “Methods of manufacturing glucose measuring assemblies with hydrogels” (Animas Technologies, LLC, priority 1999, dated 2007).
Several values for one entry are separate records, joined by “and”; a condition that tells them apart may be missing. Identical values can stand only once.

Tests used:
[1] = Adsorption of Nipastat paraben components from hydrogel by mask layer, HPLC of gel extract; type: physicochemical; details: Gel Control, 48 Hours at 4° C.
Protocol: (§1) Nipastat®-containing hydrogels were formulated with the appropriate buffer salts under standard conditions, from which samples were taken for analysis. […] The hydrogels were cut using a ¾ inch punch to generate the sample disks to assay. Each disk was added to 5 mL of acetonitrile/water (30% ACN, v/v) and the Nipastat® biocide was extracted for 1 hour while shaking on an orbital shaker at 100 rpm. The extract was then filtered through a 0.2 μm membrane prior to HPLC separation and UV detection at 254 nm.
Reverse phase HPLC chromatography was performed using a Waters 3.9 mm×15 cm Nova-Pak C-18 column (Milford, Mass.) operating at a flow rate of between about 1.0 to 2.0 mL/min. at 35° C. The eluent was monitored by UV at 254 nm using a Shimadzu SPD-10AU UV-Visible spectrometer (Kyoto, Japan). Samples 10 μL in volume were injected into the column equilibrated in 30% ACN in water, and the following 20-minute gradient program was performed: • 1. Initial time of injection: 30% ACN/70% water at a flow rate of 1 mL/min • 2. Linear Gradient from 30% ACN to 80% ACN for 9.0 minutes (1 mL/min) • 3. Linear Gradient from 80% ACN to 100% ACN for 0.5 minutes (1 mL/min) • 4. 100% ACN for 4.5 minutes (1 mL/min) • 5. Linear Gradient from 100% ACN to 30% ACN for 0.5 minutes at a flow rate of 2 mL/min • 6.30% ACN for 5.5 minutes at a flow rate of 1 mL/min […]

[2] = Adsorption of Nipastat paraben components from hydrogel by gel retaining layer, HPLC of gel extract; type: physicochemical; details: 9 Days at 4° C.; for HPLC peak intensity of paraben extracted from hydrogel, Average: average of 5; for HPLC peak intensity of paraben extracted from hydrogel: individual samples 1-5
Protocol: as §1
Reverse phase HPLC chromatography was performed using a Waters 3.9 mm×15 cm Nova-Pak C-18 column (Milford, Mass.) operating at a flow rate of between about 1.0 to 2.0 mL/min. at 35° C. The eluent was monitored by UV at 254 nm using a Shimadzu SPD-10AU UV-Visible spectrometer (Kyoto, Japan). Samples 10 μL in volume were injected into the column equilibrated in 30% ACN in water, and the following 20-minute gradient program was performed: • 1. Initial time of injection: 30% ACN/70% water at a flow rate of 1 mL/min • 2. Linear Gradient from 30% ACN to 80% ACN for 9.0 minutes (1 mL/min) • 3. Linear Gradient from 80% ACN to 100% ACN for 0.5 minutes (1 mL/min) • 4. 100% ACN for 4.5 minutes (1 mL/min) • 5. Linear Gradient from 100% ACN to 30% ACN for 0.5 minutes at a flow rate of 2 mL/min • 6.30% ACN for 5.5 minutes at a flow rate of 1 mL/min
The HPLC profiles of the extracts were compared with that of a standard solution of known concentration comprising the p-hydroxybenzoate derivatives. The peak intensities of the experimental samples are compared to those of the standards to determine relative amounts of each extracted paraben.
Collection assemblies incorporating Nipastat® biocide-comprising hydrogels were assayed for retention of the biocide within the hydrogel. Samples of the hydrogel prior to and after incorporation into the collection assembly, as well as the components of the collection assembly in contact with the hydrogel, were prepared as described in Example 1.

Substance: p-hydroxybenzoic acid butyl esters
- HPLC peak intensity of paraben extracted from hydrogel, Average ([1]; average of 5): 66562
- HPLC peak intensity of paraben extracted from hydrogel ([1]; individual samples 1-5): 59177 and 75858 and 68194 and 79360
- % Loss of Nipastat ® biocide from Gel ([2]; Gel + GRL versus Gel Control): 82.4%
- HPLC peak intensity of paraben extracted from hydrogel, Average ([2]; Gel + GRL): 12718
- HPLC peak intensity of paraben extracted from hydrogel ([2]; Gel + GRL): 1377 and 15432 and 8640 and 17787 and 20353
- HPLC peak intensity of paraben extracted from hydrogel, Average ([2]; Gel Control): 72171
- HPLC peak intensity of paraben extracted from hydrogel ([2]; Gel Control): 66552 and 82337 and 82288 and 67760 and 61920
